Source: PubChem BioAssay (NCI)
The entries are a selection whose mix differs from that of the whole data set. Activity calls are given as the source filed them. Cut-off read from the data, not from the text of the source: active = growth inhibition above about 70%; inactive = the rest.

Assay: NCI Yeast Anticancer Drug Screen. Data for the cln2 rad14 strain (AID 165);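 note: 0% = growth equal to vehicle treated cultures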
Conditions: S. cerevisiae cln2 rad14 strain, at 50.0 µM, stronger effect = higher value

| Structure (SMILES) | growth inhibition |
| --- | --- |
| O=C1C(Cl)=C(NCCCl)C(=O)C(Cl)=C1NCCCl | inactive: -4.05% |
| O=C(CSc1ccccn1)c1ccccc1 | inactive: 20.5% |
| NC1=NP(=O)(Oc2ccccc2)N=C(Nc2ccccc2)N1 (configuration not stated) | inactive: 20.3% |
| CCCCOP(=O)(OCCCC)N1CCCC1C(=O)O (configuration not stated) | inactive: 8.6% |
| O=C(OCc1ccc([N+](=O)[O-])cc1)N(CCCl)CCCl | inactive: 27.4% |
| CC1COP(N(C(C)C)C(C)C)O1 (configuration not stated) | inactive: -33.5% |
| NP(=O)(OCCCCO)N(CCCl)CCCl (configuration not stated) | inactive: -6.1% |
| ClCCNCc1ccc2c(c1)OCO2 | inactive: -6.2% |
| FC(Cl)C(F)(F)Sc1ccc(Cl)cc1 (configuration not stated) | inactive: -18.1% |
| O=C1CCC(C(=O)OC2CN3CCC2CC3)C(=O)N1 (configuration not stated) | inactive: 0.6% |
| ClCCN1CN(CCCl)c2ccccc21 | inactive: -10.2% |
| Cc1c([N+](=O)[O-])c([N+](=O)[O-])c(CCn2cnc3c(N(CCO)CCO)ncnc32)c([N+](=O)[O-])c1[N+](=O)[O-] | inactive: 2% |
| C[n+]1cc(-c2ccccc2)cc2ccccc21 | inactive: 16.1% |
| O=[N+]([O-])c1cccc(S(=O)(=O)N(CCCl)CCCl)c1 | inactive: -21% |
| O=C(O)C(CCCNc1ccc([N+](=O)[O-])cc1[N+](=O)[O-])Nc1ccc([N+](=O)[O-])cc1[N+](=O)[O-] (configuration not stated) | inactive: 22% |
| [N-]=[N+]=Nc1cc(N)c([N+](=O)[O-])cc1[N+](=O)[O-] | inactive: 9.4% |
| CN(C)NC(=O)NP(=O)(NC(=O)NN(C)C)NC(=O)NN(C)C | inactive: -4% |
